Article PMC11123931, “The Synergistic Effect of N2 and N7 Modifications on the Inhibitory Efficacy of mRNA Cap Analogues” (Pharmaceuticals, 2024)

By UniProt entry, the sequences of proteins in these tests, tags left out.
UniProt P06730, whole entry: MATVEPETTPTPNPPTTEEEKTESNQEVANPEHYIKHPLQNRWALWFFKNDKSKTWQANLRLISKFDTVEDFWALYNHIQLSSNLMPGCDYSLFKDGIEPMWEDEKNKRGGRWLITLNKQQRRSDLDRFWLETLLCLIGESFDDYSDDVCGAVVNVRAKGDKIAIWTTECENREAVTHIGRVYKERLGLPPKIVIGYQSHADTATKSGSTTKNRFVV

Biological target: T1, human eIF4E (heIF4E) (Homo sapiens, UniProt P06730)
T1 construct: The thermal stability of human full-length eIF4E (heIF4E) was analyzed; made in house
Assay: Thermal stabilization of heIF4E by differential scanning fluorimetry (DSF)
Details: from ΔTm versus ligand concentration, single site ligand binding model, 1% DMSO, read-out: appK ± SE (apparent affinity to heIF4E)
Protocol: The thermal stability of human full-length eIF4E (heIF4E) was analyzed using differential scanning fluorimetry (DSF), similar to that described previously for murine eIF4E [30]. heIF4E was expressed and purified as described earlier. The assay sample (20 μL) contained 5× SYPRO Orange (Sigma Aldrich, St. Louis, MO, USA) and 4 μM of heIF4E (final concentration) in HEPES/KOH with 100 mM KCl, 0.5 mM EDTA, and 1 mM DTT (pH 7.2). The tested compounds, as 10× stocks in 10% DMSO, were added to the final concentration at a range from 1 μM to 200 μM. DMSO at a 1% final concentration was then added to the control reactions without any compounds. […] The melting temperature (Tm) was determined as the minimum of the first negative derivative with the built-in CFX Manager Software (Bio-Rad).

- Kd: 11.3 ± 1.09 µM
Compound: Cn1c[n+]([C@@H]2O[C@H](COP(=O)(O)OP(=O)([O-])OP(=O)(O)OC[C@H]3O[C@@H](n4cnc5c(=O)[nH]c(N)nc54)[C@H](O)[C@@H]3O)[C@@H](O)[C@H]2O)c2nc(N)[nH]c(=O)c21 [m^7GpppG]
